Laboratory results as given in the NIST ThermoML archive (doi:10.1016/j.jct.2015.02.007).

Assay: xn = mol fraction of the nth substance listed
Settings: 100 kPa, Liquid; for mass density: Vibrating tube method; for speed of sound: Pulse-echo method

OCCOCCOCCOCCO [tetraethylene glycol] + O
Settings	mass density [kg/m3]	speed of sound [m/s]
278.15 K, x1 = 0.0116	1018.94	–
278.15 K, x1 = 0.0203	1031.27	–
278.15 K, x1 = 0.0406	1055.35	–
278.15 K, x1 = 0.0605	1073.22	–
278.15 K, x1 = 0.0806	1086.77	–
278.15 K, x1 = 0.1024	1097.77	–
278.15 K, x1 = 0.1511	1113.07	–
278.15 K, x1 = 0.2006	1121.28	–
278.15 K, x1 = 0.25	1125.88	–
278.15 K, x1 = 0.3012	1128.73	–
278.15 K, x1 = 0.4024	1131.71	–
278.15 K, x1 = 0.4964	1133.14	–
278.15 K, x1 = 0.5985	1134.11	–
278.15 K, x1 = 0.7018	1134.76	–
278.15 K, x1 = 0.759	1135.01	–
278.15 K, x1 = 0.8201	1135.22	–
278.15 K, x1 = 0.8353	1135.27	–
278.15 K, x1 = 0.8804	1135.4	–
278.15 K, x1 = 0.9237	1135.52	–
278.15 K, x1 = 0.9719	1135.68	–
278.15 K, x1 = 1	1135.81	–
283.15 K, x1 = 0.0116	1018.15	–
283.15 K, x1 = 0.0203	1030.12	–
283.15 K, x1 = 0.0406	1053.44	–
283.15 K, x1 = 0.0605	1070.73	–
283.15 K, x1 = 0.0806	1083.86	–
283.15 K, x1 = 0.1024	1094.55	–
283.15 K, x1 = 0.1511	1109.47	–
283.15 K, x1 = 0.2006	1117.51	–
283.15 K, x1 = 0.25	1122.06	–
283.15 K, x1 = 0.3012	1124.88	–
283.15 K, x1 = 0.4024	1127.86	–
283.15 K, x1 = 0.4964	1129.28	–
283.15 K, x1 = 0.5985	1130.23	–
283.15 K, x1 = 0.7018	1130.86	–
283.15 K, x1 = 0.759	1131.1	–
283.15 K, x1 = 0.8201	1131.3	–
283.15 K, x1 = 0.8353	1131.35	–
283.15 K, x1 = 0.8804	1131.46	–
283.15 K, x1 = 0.9237	1131.58	–
283.15 K, x1 = 0.9719	1131.73	–
283.15 K, x1 = 1	1131.85	–
288.15 K, x1 = 0.0005	–	1469
288.15 K, x1 = 0.0009	–	1471.3
288.15 K, x1 = 0.0021	–	1477.2
288.15 K, x1 = 0.0036	–	1485.1
288.15 K, x1 = 0.0058	–	1496.6
288.15 K, x1 = 0.0082	–	1508.9
288.15 K, x1 = 0.0116	1017.08	–
288.15 K, x1 = 0.0174	–	1554
288.15 K, x1 = 0.0203	1028.71	–
288.15 K, x1 = 0.0206	–	1569.1
288.15 K, x1 = 0.0244	–	1586.3
288.15 K, x1 = 0.0292	–	1606.5
288.15 K, x1 = 0.0332	–	1622.3
288.15 K, x1 = 0.0388	–	1642.9
288.15 K, x1 = 0.0406	1051.33	–
288.15 K, x1 = 0.0427	–	1656
288.15 K, x1 = 0.0466	–	1668.2
288.15 K, x1 = 0.0518	–	1683.2
288.15 K, x1 = 0.0579	–	1698.5
288.15 K, x1 = 0.0605	1068.11	–
288.15 K, x1 = 0.0648	–	1713.3
288.15 K, x1 = 0.0698	–	1722.6
288.15 K, x1 = 0.0751	–	1731.1
288.15 K, x1 = 0.0804	–	1738.4
288.15 K, x1 = 0.0806	1080.87	–
288.15 K, x1 = 0.0819	–	1740.2
288.15 K, x1 = 0.0874	–	1746.4
288.15 K, x1 = 0.0942	–	1752.4
288.15 K, x1 = 0.0999	–	1756.3
288.15 K, x1 = 0.1024	1091.26	–
288.15 K, x1 = 0.1029	–	1758.1
288.15 K, x1 = 0.1068	–	1760
288.15 K, x1 = 0.1133	–	1762.4
288.15 K, x1 = 0.1137	–	1762.5
288.15 K, x1 = 0.1202	–	1764
288.15 K, x1 = 0.1308	–	1765
288.15 K, x1 = 0.1439	–	1764.3
288.15 K, x1 = 0.1511	1105.83	–
288.15 K, x1 = 0.1556	–	1762.3
288.15 K, x1 = 0.1791	–	1756.2
288.15 K, x1 = 0.2001	–	1749.3
288.15 K, x1 = 0.2006	1113.73	–
288.15 K, x1 = 0.2146	–	1744.4
288.15 K, x1 = 0.2391	–	1736
288.15 K, x1 = 0.25	1118.2	–
288.15 K, x1 = 0.284	–	1721.3
288.15 K, x1 = 0.3012	1121	–
288.15 K, x1 = 0.3449	–	1703.6
288.15 K, x1 = 0.4024	1123.97	–
288.15 K, x1 = 0.424	–	1684.5
288.15 K, x1 = 0.4964	1125.4	–
288.15 K, x1 = 0.5705	–	1660.6
288.15 K, x1 = 0.5985	1126.33	–
288.15 K, x1 = 0.7018	1126.93	–
288.15 K, x1 = 0.7053	–	1647.7
288.15 K, x1 = 0.759	1127.16	–
288.15 K, x1 = 0.8201	1127.35	–
288.15 K, x1 = 0.8249	–	1639.8
288.15 K, x1 = 0.8353	1127.39	–
288.15 K, x1 = 0.8804	1127.51	–
288.15 K, x1 = 0.9027	–	1636.2
288.15 K, x1 = 0.9237	1127.62	–
288.15 K, x1 = 0.9471	–	1634.8
288.15 K, x1 = 0.9719	1127.77	–
288.15 K, x1 = 1	1127.88	1633.1
293.15 K, x1 = 0.0003	–	1484
293.15 K, x1 = 0.0008	–	1486.8
293.15 K, x1 = 0.0017	–	1492
293.15 K, x1 = 0.0031	–	1499.2
293.15 K, x1 = 0.0052	–	1510.5
293.15 K, x1 = 0.0084	–	1527.1
293.15 K, x1 = 0.012	–	1545.1
293.15 K, x1 = 0.0157	–	1562.1
293.15 K, x1 = 0.0215	–	1587.8
293.15 K, x1 = 0.0254	–	1603.5
293.15 K, x1 = 0.0304	–	1622.3
293.15 K, x1 = 0.0352	–	1638.8
293.15 K, x1 = 0.0399	–	1653.3
293.15 K, x1 = 0.0462	–	1671.1
293.15 K, x1 = 0.0524	–	1686
293.15 K, x1 = 0.0583	–	1698.6
293.15 K, x1 = 0.0663	–	1712.8
293.15 K, x1 = 0.0704	–	1719
293.15 K, x1 = 0.0764	–	1726.9
293.15 K, x1 = 0.0808	–	1731.8
293.15 K, x1 = 0.0831	–	1734.2
293.15 K, x1 = 0.0858	–	1736.6
293.15 K, x1 = 0.0892	–	1739.5
293.15 K, x1 = 0.0932	–	1742.3
293.15 K, x1 = 0.0947	–	1743.3
293.15 K, x1 = 0.1007	–	1746.6
293.15 K, x1 = 0.1017	–	1747.1
293.15 K, x1 = 0.1087	–	1749.8
293.15 K, x1 = 0.1105	–	1750.3
293.15 K, x1 = 0.1161	–	1751.5
293.15 K, x1 = 0.1187	–	1752
293.15 K, x1 = 0.1337	–	1752.5
293.15 K, x1 = 0.143	–	1751.5
293.15 K, x1 = 0.1574	–	1748.7
293.15 K, x1 = 0.1704	–	1745.1
293.15 K, x1 = 0.2166	–	1729.1
293.15 K, x1 = 0.2475	–	1717.8
293.15 K, x1 = 0.2809	–	1706.4
293.15 K, x1 = 0.3333	–	1690.5
293.15 K, x1 = 0.396	–	1674.7
293.15 K, x1 = 0.4747	–	1659
